Data as given in patent US12478601B2, “Dietary product devoid of at least two non essential amino acids” (CANCER RESEARCH TECHNOLOGY LIMITED, priority 2016, dated 2025).
Where a name gives a salt, the structure may show the parent alone.

Tests used:
HCT116, DLD1 and SW480 = assay: Synergy score screen: chemotherapeutic agents in low serine, glycine, cysteine medium, cell counts
[1] = system: lymphoma (based on Eμ-Myc expression); conditions: 100 mg/kg/day, mice receiving the serine and glycine deficient diet

Row | SMILES | SYNERGY SCORE (HCT116, DLD1 and SW480) | toxicity (symptoms resembling dyschezia) [1]
1 | CCCCCOC(=O)Nc1nc(=O)n([C@@H]2O[C@H](C)[C@@H](O)[C@H]2O)cc1F [Capecitabine] | 1.94 | 
2 | NCCCNCCSP(=O)(O)O [Amifostine] | 3.01 | 
3 | C1CN1c1nc(N2CC2)nc(N2CC2)n1 [Triethylenemelamine] | 1.03 | 
4 | [H]/N=C(/N)N/C(=N/[H])NCCc1ccccc1 [phenformin] |  | significant toxicity
5 | CCC1=C[C@@H]2CN(C1)Cc1c([nH]c3ccccc13)[C@@](C(=O)OC)(c1cc3c(cc1OC)N(C)[C@H]1[C@@](O)(C(=O)OC)[C@H](OC(C)=O)[C@]4(CC)C=CCN5CC[C@]31[C@@H]54)C2 [Vinorelbine tartrate] | 3.96 | 
